Laboratory results reported in PMC3849192, “A Simple Method for Assessing Free Brain/Free Plasma Ratios Using an In Vitro Model of the Blood Brain Barrier” (PLoS ONE, 2013).

Experiment: In vivo brain exposure (Cu,br/Cu,pl) under steady-state like conditions after intravenous administration
Settings: rat, i.v. bolus plus infusion; for In vivo Cu,br/Cu,pl (homog.) Mean steady-state: Cbr/Cpl x fubr/fupl with fu,br from brain homogenate; for In vivo Cu,br/Cu,pl (slice) Mean steady-state: Cbr/Cpl x fubr/fupl with fu,br from brain slice

| SMILES | In vivo Cu,br/Cu,pl (homog.) Mean steady-state | In vivo Cu,br/Cu,pl (slice) Mean steady-state |
| --- | --- | --- |
| CN1C(=O)CN=C(c2ccccc2)c2cc(Cl)ccc21 [Diazepam] | 0.49 | 0.49 |
| CN1CC[C@]23c4c5ccc(O)c4O[C@H]2[C@@H](O)C=C[C@H]3[C@H]1C5 [Morphine] | 0.20 | 0.15 |
